Amino acid sequences for entries named in this document (tags omitted).
UniProt P21397, whole entry, species assumed: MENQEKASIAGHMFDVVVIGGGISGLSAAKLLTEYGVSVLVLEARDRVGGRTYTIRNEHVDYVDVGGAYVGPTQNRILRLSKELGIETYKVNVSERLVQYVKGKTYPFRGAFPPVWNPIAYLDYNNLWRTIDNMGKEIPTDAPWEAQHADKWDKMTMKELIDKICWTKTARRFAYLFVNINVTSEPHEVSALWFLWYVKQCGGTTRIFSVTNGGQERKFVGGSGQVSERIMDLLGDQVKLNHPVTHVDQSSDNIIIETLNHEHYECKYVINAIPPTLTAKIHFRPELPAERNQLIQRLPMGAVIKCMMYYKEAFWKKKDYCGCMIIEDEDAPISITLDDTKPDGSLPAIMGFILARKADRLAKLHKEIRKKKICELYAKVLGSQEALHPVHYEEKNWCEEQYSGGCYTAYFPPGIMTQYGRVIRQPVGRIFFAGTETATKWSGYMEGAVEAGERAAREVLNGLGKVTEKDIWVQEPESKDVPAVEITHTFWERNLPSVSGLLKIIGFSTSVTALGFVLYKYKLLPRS

According to patent US10314775B2, “Methods of increasing hair growth and improving hair appearance” (MyMD Pharmaceuticals, Inc., priority 2016, dated 2019):

Target: T1, MAO-A (Homo sapiens, UniProt P21397)
T1 construct: purchased
Test: MAO-Glo luminescent assay, MAO-A inhibition
Format: biochemical
Details: FIG. 1; compared with myosmine, anatabine, anabasine, nornicotine; clorgyline positive control
From the text: This example describes experiments for determining monoamine oxidase (MAO) inhibition for isomyosmine and other alkaloids. MAOs are enzymes located on the outer membrane of mitochondria and are involved in the catabolism of monoamine neurotransmitters. There are two well-characterized isoenzymes: MAO-A, which predominantly catabolizes serotonin and norepinephrine, and MAO-B, which preferentially catabolizes benzylamine and phenylethylamine. Dopamine and tyramine are metabolized by both isoforms.
To detect the activity of MAO, a luminescent method (MAO-Glo Assay kit, from Promega, Cat # V1401) was used. In this method, a MAO substrate (a derivative of beetle luciferin provided in the kit) is mixed with the compound to be tested (in this case, myosmine and control compounds). Then, the MAO enzymes (either A or B, purchased separately) are added to the mixture and incubated with the reaction for 1 hour at room temperature. The MAO enzymes, if not inhibited by the test compound, will convert the substrate into methyl ester luciferin. Finally, a luciferin detection reagent (provided by the kit) is added (20 minutes at room temperature) to stop the MAO reaction and convert methyl ester luciferin into D-luciferin. […] The luminescent signal is measured and recorded using a luminometer.
Anatabine was obtained from Emerson Resources, Norristown, Pa.

C#CCN(C)CCCOc1ccc(Cl)cc1Cl [clorgyline, reference compound]
inhibiting the enzymatic activity of MAO-A, comparison of curves: greatly shifted leftward
